From ChEMBL document CHEMBL1149991, “Benzofuran based angiotensin II antagonists related to GR117289: enhancement of potency in vitro and oral activity” (Bioorg Med Chem Lett, 1993)

By UniProt entry, the sequences of proteins in these tests, tags left out.
UniProt P34976, whole entry: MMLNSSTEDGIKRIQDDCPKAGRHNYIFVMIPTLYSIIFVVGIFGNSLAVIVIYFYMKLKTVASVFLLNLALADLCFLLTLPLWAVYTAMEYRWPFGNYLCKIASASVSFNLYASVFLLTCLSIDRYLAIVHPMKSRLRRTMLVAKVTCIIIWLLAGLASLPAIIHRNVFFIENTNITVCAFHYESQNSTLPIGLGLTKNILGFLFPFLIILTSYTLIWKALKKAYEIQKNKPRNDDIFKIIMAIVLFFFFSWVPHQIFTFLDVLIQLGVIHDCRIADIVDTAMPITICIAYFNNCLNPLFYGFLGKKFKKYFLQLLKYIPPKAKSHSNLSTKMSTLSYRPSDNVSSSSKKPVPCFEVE

Target: Type-1 angiotensin II receptor (Oryctolagus cuniculus) (UniProt P34976)
Experiment: In vitro for its antagonistic activity against angiotensin II type 1 receptor in Rabbit Aorta
Assay type: functional, tissue-based

`CCCCc1nc(Cl)c(C(=O)O)n1Cc1ccc2oc(-c3ccccc3-c3nnn[nH]3)c(Br)c2c1` gave a pKB of 9.8.
